Test system: 9 L gliosarcoma
Test: Confocal imaging of dendrimer and dextran-FITC distribution in intracranial tumor
Conditions: co-injection of 2 mg D-Cy5 and 2 mg dextran-FITC

Fluorescein isothiocyanate-dextran [dextran-FITC]
distribution in the tumor (confocal fluorescence): only observed around the tumor border and not in the tumor core
